# Test: Blood clearance of 125I-C5aRa in mice
# Type: in vivo, mouse
# Method: To evaluate the blood clearance of C5aRa, anesthetized mice were injected i.v. with C5aRa (1 mg/kg body weight) in 200 μL DPBS containing trace amounts of 1^25I-C5aRa (specific activity 33.9 μCi/μg). Sixty seconds after administration, 5 μL blood was drawn from a small incision at the tail tip, followed by direct pressure to stop further bleeding. Animals were killed after specified periods (1, 2, 3, 6, 12, 24, 36, 48, 72, 96 h) and the radioactivity of blood samples (100 μL aliquots) was measured in a gamma counter (1261 Multigamma, EG&G, Wallac, Gaithersburg, Md.) and compared with the value obtained 1.0 min after infusion of C5aRa.
smiles,measurement,setting,value
"N=C(N)NCCC[C@@H]1NC(=O)[C@H](Cc2c[nH]c3ccccc23)NC(=O)[C@@H](CC2CCCCC2)NC(=O)[C@@H]2CCCN2C(=O)[C@@H](NC(=O)[C@@H](N)Cc2ccccc2)CCCNC1=O [C5aRa, F[OPdChaWR]]",C5aRa concentration in blood as percent of the initial dose,"36 h after application, i.v. 1 mg/kg",10%
same,share of slower clearance phase in total area for blood concentration vs. time,single i.v. bolus 1 mg/kg,63%
